Test results as given in patent publication US7696185B2, “Peptidomimetic inhibitors of PSMA, compounds comprising them, and methods of use” (Cancer Targered Technology LLC, priority 2006, dated 2010).

Protein sequences, listed by entry. Tags and fused reporters are not part of them.
UniProt Q04609, whole entry: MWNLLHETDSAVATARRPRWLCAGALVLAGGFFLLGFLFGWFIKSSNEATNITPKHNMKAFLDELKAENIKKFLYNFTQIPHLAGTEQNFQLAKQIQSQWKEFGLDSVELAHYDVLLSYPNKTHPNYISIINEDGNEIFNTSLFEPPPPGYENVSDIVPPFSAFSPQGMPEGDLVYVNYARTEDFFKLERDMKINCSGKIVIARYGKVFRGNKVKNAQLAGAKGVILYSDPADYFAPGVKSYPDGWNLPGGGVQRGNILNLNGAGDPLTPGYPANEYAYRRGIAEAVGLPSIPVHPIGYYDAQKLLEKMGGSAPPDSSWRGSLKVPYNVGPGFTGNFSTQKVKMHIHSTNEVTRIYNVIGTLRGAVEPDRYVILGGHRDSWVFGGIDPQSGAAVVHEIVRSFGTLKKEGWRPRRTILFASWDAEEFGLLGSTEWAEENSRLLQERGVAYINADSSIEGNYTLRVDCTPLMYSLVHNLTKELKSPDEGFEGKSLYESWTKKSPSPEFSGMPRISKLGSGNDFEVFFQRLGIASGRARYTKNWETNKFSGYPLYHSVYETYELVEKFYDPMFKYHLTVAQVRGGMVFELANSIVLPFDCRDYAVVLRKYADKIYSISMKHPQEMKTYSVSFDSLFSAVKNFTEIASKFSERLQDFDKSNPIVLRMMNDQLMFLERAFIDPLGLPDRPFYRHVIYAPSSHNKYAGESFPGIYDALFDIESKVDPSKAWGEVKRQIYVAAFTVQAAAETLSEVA

Target: T1, purified PSMA (Homo sapiens, UniProt Q04609)
T1 construct: against purified PSMA from LNCaP cells by our published method; endogenous in cells; host or cells: LNCaP cells
Assay: PMSA Inhibition Assay (HPLC, PAB-Glu-γ-Glu substrate)
Assay type: biochemical
Conditions: purified PSMA from LNCaP cells
Method: Adapted from, Maung, J.; Mallari, J. P.; Girtsman, T. A.; Wu, L. Y.; Rowley, J. A.; Santiago, N. M.; Brunelle, A.; Berkman, C. E. Probing for a Hydrophobic a Binding Register in Prostate-Specific Membrane Antigen with Phenylalkylphosphonamidates. […] Med. Chem. 2004, 12, 4969.
Working solutions of the substrate (N-[4-(phenylazo)benzoyl]-glutamyl-g-glutamic acid, PAB-Glu-γ-Glu) and all inhibitors were made in TRIS buffer (50 mM, pH 7.4). Working solutions of purified PSMA were appropriately diluted in TRIS buffer (50 mM, pH 7.4) to provide from 15% to 20% conversion of substrate to product in the absence of inhibitor. A typical incubation mixture (final volume 250 μL) was prepared by the addition of either 25 μL of an inhibitor solution or 25 μL TRIS buffer (50 mM, pH 7.4) to 175 μL TRIS buffer (50 mM, pH 7.4) in a test tube. A volume of the 25 μL PAB-Glu-γ-Glu (100 μM) was added to the above solution. […] An 85 μL aliquot of the resulting supernatant was subsequently quantified by HPLC. IC50 values were calculated using KaleidaGraph 3.6 (Synergy Software).
PABGγG and its hydrolytic product (PABG) were separated and quantified using an analytical reversed-phase HPLC column (Lichrosphere C18 5 μm, 150×4.6 mm; Phenomenex, Torrence, Calif.) with a mobile phase consisting of ACN/potassium phosphate [25 mM, pH 2.0 (adjusted with H3PO4)] at a respective volume ratio of 40:60.

With `O=C(O)CCC(CP(=O)(O)O)C(=O)O` (stereo not shown) [Compound 2-PMPA, 2-PMPA, reference compound] the “inhibitory potency / affinity for PSMA (in words)” value was “superior inhibitory potency”.
